Values quoted from earlier work as cited in patent US20200352901A1, “TETRAHYDRO[…]” (priority 2017, published 2020).

Chains of the proteins cited; added tags and fusions are not shown.
UniProt P21554, whole entry, species assumed: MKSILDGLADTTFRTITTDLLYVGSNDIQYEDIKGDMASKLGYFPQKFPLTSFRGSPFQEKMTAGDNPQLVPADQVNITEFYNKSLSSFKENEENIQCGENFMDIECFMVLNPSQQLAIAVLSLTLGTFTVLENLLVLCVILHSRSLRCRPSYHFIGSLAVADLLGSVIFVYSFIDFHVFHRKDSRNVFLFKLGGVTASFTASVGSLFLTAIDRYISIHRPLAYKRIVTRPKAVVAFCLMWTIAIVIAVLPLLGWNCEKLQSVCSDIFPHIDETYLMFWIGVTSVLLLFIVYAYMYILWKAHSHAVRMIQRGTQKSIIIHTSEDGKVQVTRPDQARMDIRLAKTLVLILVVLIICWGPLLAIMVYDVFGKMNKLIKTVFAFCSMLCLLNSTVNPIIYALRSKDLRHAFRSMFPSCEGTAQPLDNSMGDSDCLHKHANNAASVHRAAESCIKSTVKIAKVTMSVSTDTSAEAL

Target: CB1 (Homo sapiens, UniProt P21554)

In the case of `CCCCCc1cc(O)c2c(c1)OC(C)(C)C1CC=C(C)CC21` (stereo not shown) [delta-8-THC, delta-8-tetrahydrocannabinol], the “Functional character at CB1” value is listed as “agonists”.
